Test results: publication PMC4609936, “Pharmacologically targeted NMDA receptor antagonism by NitroMemantine for cerebrovascular disease” (Scientific Reports, 2015)

Tested on: spontaneously hypertensive rats (SHR)
Assay: tMCAO/R focal cerebral ischemia, infarct size by TTC staining
Format: in vivo, rat
Settings: MFD of NitroMemantine (65.8 μmol/kg loading, 3.29 μmol/kg maintenance)
Description: Because of their known propensity to stroke, similar to human patients with hypertension, we used spontaneous hypertensive rats (SHR, Harlan) to induce tMCAO/R with the intraluminal suture method. Male 200–300 g SHR were anesthetized with 3% isoflurane in 30% oxygen/70% nitrous oxide using an anesthetic vaporizer and flowmeter. Body temperature was maintained at 37 °C with a homeothermic temperature system. A laser Doppler monitor was used to monitor relative cerebral blood flow (rCBF) during the surgical procedure and recovery. rCBF measurements were made immediately after anesthesia, after occlusion of the MCA, just before, and immediately after withdrawal of the suture to initiate reperfusion. To initiate a stroke, a midline incision was made to expose the right common carotid, external carotid, and internal carotid arteries. The occipital artery branches of the external carotid artery were isolated and along with the terminal lingual and maxillary artery branches coagulated with an electrocautery unit. The internal carotid artery was isolated and carefully separated from the adjacent vagus nerve. […] The rodents were sacrificed 24-h post occlusion, and the size of brain infarct was evaluated histologically by 2,3,5-triphenyl-2H-tetrazolium chloride (TTC) staining.

Substance: 1-amino-3′,5′-diethyl-7-hydroxy-adamantine
- histological protection (infarct size) at equimolar dose: no significant protection
